Results from ChEMBL document CHEMBL3351825, “Polyoxypregnane steroids from the stems of Marsdenia tenacissima” (J Nat Prod, 2014).

What was measured:
Type in all cases: cell-based
SW-620 [1] = assay: Reversal of P-gp-mediated resistance assessed as ratio of doxorubicin IC50 for human SW620/AD300 cells to doxorubicin IC50 for human SW620 cells in presence of compound at 10 uM
SW-620 [2] = assay: Reversal of P-gp-mediated resistance assessed as ratio of doxorubicin IC50 for human SW620/AD300 cells to doxorubicin IC50 for human SW620 cells in presence of compound at 2 uM
SW-620 [3] = assay: Reversal of P-gp-mediated resistance assessed as ratio of cisplatin IC50 for human SW620/AD300 cells to cisplatin IC50 for human SW620 cells in presence of compound at 2 uM
SW-620 [4] = assay: Reversal of P-gp-mediated resistance assessed as ratio of cisplatin IC50 for human SW620/AD300 cells to cisplatin IC50 for human SW620 cells in presence of compound at 10 uM

| Compound | Ratio IC50 (SW-620 [1]) | further results |
| --- | --- | --- |
| CO[C@H]1[C@@H](O)[C@H](O[C@@H]2[C@@H](C)O[C@@H](O[C@H]3CC[C@@]4(C)[C@@H](CC[C@]56OC7(C)OC([C@H]45)[C@@H](O)[C@]4(C)[C@H]7CC[C@@H]64)C3)C[C@H]2OC)O[C@H](C)[C@H]1O | 198 |  |
| CO[C@H]1[C@@H](O)[C@H](O[C@@H]2[C@@H](C)O[C@@H](O[C@H]3CC[C@@]4(C)[C@@H](CC[C@@]56O[C@@]57CC[C@H](C(C)=O)[C@@]7(C)[C@H](OC(C)=O)[C@@H](OC(=O)c5ccccc5)[C@H]46)C3)C[C@H]2OC)O[C@H](C)[C@H]1O[C@@H]1O[C@H](CO)[C@@H](O[C@@H]2O[C@H](CO)[C@@H](O)[C@H](O)[C@H]2O)[C@H](O)[C@H]1O | 168 |  |
| CO[C@H]1[C@@H](O)[C@H](O[C@@H]2[C@@H](C)O[C@@H](O[C@H]3CC[C@@]4(C)[C@@H](CC[C@@]56O[C@@]57CC[C@H](C(C)=O)[C@@]7(C)[C@H](O)[C@@H](OC(=O)c5ccccc5)[C@H]46)C3)C[C@H]2OC)O[C@H](C)[C@H]1O | 138 |  |
| CO[C@H]1[C@@H](O)[C@H](O[C@@H]2[C@@H](C)O[C@@H](O[C@H]3CC[C@@]4(C)[C@@H](CC[C@@]56O[C@@]57CC[C@H](C(C)=O)[C@@]7(C)[C@H](O)[C@@H](O)[C@H]46)C3)C[C@H]2OC)O[C@H](C)[C@H]1O[C@@H]1O[C@H](CO)[C@@H](O)[C@H](O)[C@H]1O | 165 |  |
| CO[C@H]1[C@@H](O)[C@H](O[C@@H]2[C@@H](C)O[C@@H](O[C@H]3CC[C@@]4(C)[C@@H](CC[C@@]56O[C@@]57CC[C@H](C(C)=O)[C@@]7(C)[C@H](O)[C@@H](OC(C)=O)[C@H]46)C3)C[C@H]2OC)O[C@H](C)[C@H]1O | 130 |  |
| C/C=C(\C)C(=O)O[C@@H]1[C@@H](O)[C@]2(C)[C@@H](C(C)=O)CC[C@@]23O[C@]32CC[C@H]3C[C@@H](O[C@H]4C[C@@H](OC)[C@H](O[C@@H]5O[C@H](C)[C@@H](O)[C@@H](OC)[C@H]5O)[C@@H](C)O4)CC[C@]3(C)[C@@H]12 | 213 |  |
| C/C=C(\C)C(=O)O[C@@H]1[C@@H](O)[C@]2(C)[C@@H](C(C)=O)CC[C@@]23O[C@]32CC[C@H]3C[C@@H](O[C@H]4C[C@@H](OC)[C@H](O[C@@H]5O[C@H](C)[C@@H](O[C@@H]6O[C@H](CO)[C@@H](O)[C@H](O)[C@H]6O)[C@@H](OC)[C@H]5O)[C@@H](C)O4)CC[C@]3(C)[C@@H]12 | 133 |  |
| CCC(C)C(=O)O[C@@H]1[C@@H](OC(C)=O)[C@]2(C)[C@@H](C(C)=O)CC[C@@]23O[C@]32CC[C@H]3CC(=O)CC[C@]3(C)[C@@H]12 (stereo partly specified) | 4 | Ratio IC50 (SW-620 [2]): 19; Ratio IC50 (SW-620 [3]): 1; Ratio IC50 (SW-620 [4]): 1.1 |
